Results published in patent US20130053400A1, “OLIGOMER-ANTIHISTAMINE CONJUGATES” (priority 2007, published 2013).

Amino acid sequences for entries named in this document (tags omitted).
UniProt P47747, whole entry: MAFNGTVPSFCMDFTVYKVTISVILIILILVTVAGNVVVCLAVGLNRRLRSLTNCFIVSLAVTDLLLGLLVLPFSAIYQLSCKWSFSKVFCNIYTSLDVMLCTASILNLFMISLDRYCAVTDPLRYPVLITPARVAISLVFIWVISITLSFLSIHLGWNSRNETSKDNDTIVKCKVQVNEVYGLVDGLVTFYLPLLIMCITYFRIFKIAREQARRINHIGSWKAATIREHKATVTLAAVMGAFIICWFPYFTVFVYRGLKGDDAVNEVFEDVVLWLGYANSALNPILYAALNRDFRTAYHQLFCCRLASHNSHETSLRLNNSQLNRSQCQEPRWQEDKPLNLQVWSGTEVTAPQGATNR

Biological target: H2 histamine receptors (Cavia porcellus, UniProt P47747)
Conditions: screening, N=1, n=3; approximation; listed as PEG-6-DPH

With `COCCOCCOCCOCCOCCOCCN(C)CCOC(c1ccccc1)c1ccccc1` [mPEG(6)-N-Diphenhydramine, mPEG6-N-diphenhydramine] the Ki values was “no specific binding to H2 receptors was observed”.
